Consider two compounds from PubChem BioAssay AID431 (Sanford-Burnham Center for Chemical Genomics, 2006).

SMILES strings stand for the structures. This is a selection; strong and weak results do not stand in their true shares. Potency and affinity values are given separately. Some of these compounds have results that are not shown, active ones among them. Active and inactive are the calls of the source.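 How the source made its calls: active means compounds whose percent cytotoxicity in the single-dose primary screen, scaled between solvent and toxic-drug controls, exceeds 50; inactive means the rest.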

The assay in a line: cytotoxicity in KRAS-transformed pancreatic duct cells, primary screen, cell-based, fluorescence, HTS (AID 431).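 Further: 0% = DMSO solvent wells and 100% = doxorubicin-treated wells.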 Particulars: HPDE-C7K KRASV12 cells, Alamar Blue viability, 48 h; at 10 µM; active compounds read high.
As for `O=C(OC1CN2CCC1CC2)C(CO)(c1ccccc1)c1ccccc1` (configuration not stated), the cytotoxicity was inactive: -10.9%.
As to `CN(C)c1cccc(C(=O)NCC2(N(C)C)CCCCC2)c1`, the cytotoxicity was inactive: -7%.
